# Binding of CDR-mutated scFvs to a peptide of the spike HR2 region

Source: Engelhart et al. 2022 (doi:10.1038/s41597-022-01779-4), MIT Lincoln Laboratory and A-Alpha Bio; data file from the FLAb repository.

Binding partner: SARS-CoV-2 spike HR2 peptide, sequence PDVDLGDISGINAS.

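Phage display of a naive human antibody library on the peptide gave the parent. The library (AAYL50) carries one to three amino acid substitutions per variant, with no insertions or deletions. AlphaSeq pools MATa yeast showing the antibodies with MATalpha yeast showing the peptide. Pairs that bind mate more often; barcode pairs of the diploids are counted by sequencing. Scores were corrected for input abundance and mapped to Kd with protein pairs of known affinity run in the same pool. There are three technical replicates.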

Parent scFv Ab-14: VH joined to VL by the linker GGGGSGGGGSGGGGS. Changes lie in the light chain CDRs alone.
VH: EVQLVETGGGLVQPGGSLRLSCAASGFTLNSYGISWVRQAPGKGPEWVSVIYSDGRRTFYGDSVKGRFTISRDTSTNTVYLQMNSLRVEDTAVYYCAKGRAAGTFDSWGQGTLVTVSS
VL: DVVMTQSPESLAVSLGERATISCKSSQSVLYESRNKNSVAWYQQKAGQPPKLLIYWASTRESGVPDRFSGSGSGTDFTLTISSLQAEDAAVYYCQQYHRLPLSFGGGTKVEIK

Positions count from residue 1 of the parent VL; R34L puts L in place of R.
All variants listed here change L102 of the VL, counted from its first residue.
Each Kd is an estimate from the mating assay, the geometric mean of the replicates in which the pair was seen; lower is stronger.
An entry "nd" has no value in the source: the pair was not observed among the diploids in any replicate. This suggests poor binding but is not conclusive.
Entries are sorted by rising average, undetected variants last.
Nonspecific signal, from three strains lacking the peptide, appeared in 18% of pairings of library AAYL50, centred on 15 µM (5% of these signals below 970 nM); values are not corrected for it.
For reference, the parent read 4.4 nM as the reference entry and 48 nM as a member of this library.

| changes | Kd | seen in |
|---|---|---|
| R34L/L100K/L102V | 2.7 nM | 3/3 |
| K36H/Q95F/L102C | 4.4 nM | 3/3 |
| S25H/L102V | 6.5 nM | 3/3 |
| S25L/T59K/L102P | 7.9 nM | 3/3 |
| N35F/L100R/L102R | 18 nM | 3/3 |
| L102Y | 22 nM | 3/3 |
| Q27A/N37A/L102C | 24 nM | 3/3 |
| S33T/H98N/L102E | 28 nM | 3/3 |
| R34M/E61D/L102Q | 29 nM | 3/3 |
| R99T/L102D | 30 nM | 3/3 |
| S58V/L102F/S103F | 48 nM | 3/3 |
| Q95C/L100G/L102T | 70 nM | 3/3 |
| L102M | 91 nM | 3/3 |
| E32R/Q95E/L102G | 120 nM | 3/3 |
| Y31R/K36C/L102W | 130 nM | 3/3 |
| K24D/S62N/L102A | 140 nM | 1/3 |
| T59K/R99A/L102D | 180 nM | 3/3 |
| R34C/S38D/L102I | 210 nM | 3/3 |
| R34K/R60T/L102A | 280 nM | 3/3 |
| N37R/S62C/L102K | 350 nM | 3/3 |
| W56S/R60N/L102M | 470 nM | 1/3 |
| Y97G/L102W | 1.0 µM | 2/3 |
| T59R/Y97H/L102K | 1.1 µM | 1/3 |
| S62W/L102E/S103I | 1.6 µM | 2/3 |
| S25G/R99H/L102Q | 1.9 µM | 1/3 |
| E32S/S58C/L102Y | 2.5 µM | 2/3 |
| S25T/S33C/L102M | 3.4 µM | 3/3 |
| N37I/L102T | 3.9 µM | 1/3 |
| Q96E/L102D/S103T | 4.2 µM | 2/3 |
| K24T/S25Y/L102T | 11 µM | 2/3 |
| T59D/R60C/L102R | 22 µM | 2/3 |
| K36S/T59G/L102S | 31 µM | 2/3 |
| H98W/L100P/L102W | 31 µM | 1/3 |
| S26V/V29K/L102H | 62 µM | 3/3 |
| Q27G/S62F/L102K | 95 µM | 1/3 |
| Q27E/L102V | 210 µM | 1/3 |
| V29L/T59P/L102F | 380 µM | 1/3 |
| S26V/R99S/L102Q | 470 µM | 1/3 |
| K24G/Q95W/L102V | nd | 0/3 |
| L100C/P101N/L102E | nd | 0/3 |
| A40K/L102G | nd | 0/3 |
| A57F/S62D/L102D | nd | 0/3 |
| V39Y/S58D/L102S | nd | 0/3 |
| V29W/L102C | nd | 0/3 |
| Q27N/R60G/L102P | nd | 0/3 |
| S33I/K36A/L102E | nd | 0/3 |
| L100C/L102I/S103T | nd | 0/3 |
| S28K/Y97E/L102S | nd | 0/3 |
| R60D/Q95M/L102K | nd | 0/3 |
| S28Y/L102R | nd | 0/3 |
| Q27Y/R34L/L102C | nd | 0/3 |
| R34M/W56P/L102P | nd | 0/3 |
| S25P/S33I/L102E | nd | 0/3 |
| S28T/Q96L/L102W | nd | 0/3 |
| W56Y/P101M/L102A | nd | 0/3 |
| R34W/Q95P/L102F | nd | 0/3 |
| S26L/Y31M/L102N | nd | 0/3 |
| E61C/L102C/S103Y | nd | 0/3 |
| S38L/S62I/L102V | nd | 0/3 |
| E32D/S58A/L102Y | nd | 0/3 |
| S26Y/L102S | nd | 0/3 |
| Q27D/P101Q/L102C | nd | 0/3 |
| E32A/R99S/L102T | nd | 0/3 |
| Y31A/L102S | nd | 0/3 |
| Q95I/L102A | nd | 0/3 |
| S58W/P101G/L102Y | nd | 0/3 |

The closing 4 entries, repeated:

changes	Kd	seen in
E32A/R99S/L102T	nd	0/3
Y31A/L102S	nd	0/3
Q95I/L102A	nd	0/3
S58W/P101G/L102Y	nd	0/3